Test results: PubChem BioAssay AID504490 (NMMLSC, 2011)
Only a part is listed here, and it is no random draw. Activity calls are given as the source filed them.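 Rule for the calls: active = inhibition above a set limit, near 3 SD of compounds lacking own fluorescence (cut at about 54% in these data); inactive = the rest.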

System: beta-arrestin 1 C-terminal peptide binding to AP2 beta2-adaptin appendage (human)
Assay: inhibitors of beta-arrestin/AP2 binding, primary screen, biochemical, GPCR trafficking, flow cytometry (AID 504490);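 note: plate controls were DMSO wells for no effect and 5 µM unlabelled arrestin peptide for full effect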
Conditions: FITC-arrestin peptide / GST-AP2 beads, at 10 µM, hits give high values, AP2 beta2 appendage carries R879A mutation

| Compound | inhibition |
| --- | --- |
| COc1ccc(NP(C)(=O)Oc2ccccc2OC)cc1 (configuration not stated) | inactive: 4.94% |
| O=[N+]([O-])c1ccc(OP2(=O)COCCO2)cc1 (configuration not stated) | inactive: -7.12% |
| Cc1cc(-c2cccc3ccccc23)c(C)cn1.O=[N+]([O-])c1cc([N+](=O)[O-])c(O)c([N+](=O)[O-])c1 | inactive: 31.9% |
| O=[N+]([O-])c1cc([N+](=O)[O-])c(NCC2CCS(=O)(=O)C2)c([N+](=O)[O-])c1 (configuration not stated) | inactive: 2.28% |
| Cc1c(C(c2ccc3c(c2)OCO3)c2c(C)n(C)n(-c3ccccc3)c2=O)c(=O)n(-c2ccccc2)n1C.O=[N+]([O-])c1cc([N+](=O)[O-])c(O)c([N+](=O)[O-])c1 | inactive: -1.45% |
| CP(=O)(Nc1ccc(SC(F)(F)F)cc1)Oc1ccc(F)cc1 (configuration not stated) | inactive: -4.63% |
| CCOP(C)(=S)SCC(=O)NC(C)(CC)C(=O)O (configuration not stated) | inactive: 2.94% |
| CP(=O)(Nc1ccc2c(c1)OCCO2)Oc1ccccc1 (configuration not stated) | inactive: 5.36% |
| Cc1ccccc1NP(C)(=O)Nc1ccccc1C | inactive: 1.8% |
| COc1ccc(OP(C)(=O)Nc2ccc(Br)cc2)cc1 (configuration not stated) | inactive: 1.6% |
| CCN(CC)CC(O)COC(=O)C(O)(c1ccccc1)C1CCCCC1 (configuration not stated) | inactive: 22% |
| O=C(OCCCN1CCCC1)C(O)(c1ccccc1)C1CCCCC1 (configuration not stated) | inactive: 15.2% |
| COc1ccccc1OP(C)(=O)Nc1c(C)n(C)n(-c2ccccc2)c1=O (configuration not stated) | inactive: 2.9% |
| CCc1ccc(OP(C)(=O)Nc2cccnc2)cc1 (configuration not stated) | inactive: -2.65% |
| CP(=O)(Oc1ccccc1)N1CCOC1=O (configuration not stated) | inactive: -1.36% |
| CC(C)(C)c1ccc(OP(C)(=O)O)cc1 | inactive: 6.97% |
| COc1ccccc1OP(C)(=O)Nc1ccccc1Br (configuration not stated) | inactive: -3.55% |
| CP(=O)(Nc1ccc(Cl)cc1)Oc1ccc(F)cc1 (configuration not stated) | inactive: 7.55% |
| CN(C)C(=O)c1c([N+](=O)[O-])cc([N+](=O)[O-])cc1[N+](=O)[O-] | inactive: 10.7% |

| Compound | inhibition |
| --- | --- |
| Nc1ccc2c(ccc3cccnc32)n1.O=[N+]([O-])c1cc([N+](=O)[O-])c(O)c([N+](=O)[O-])c1 | inactive: 4.5% |
| CCOC(=O)c1ccc(NP(C)(=O)Oc2ccc(Cl)cc2)cc1 (configuration not stated) | inactive: 3.29% |
| CP(=O)(OC12CC3CC(CC(C3)C1)C2)OC12CC3CC(CC(C3)C1)C2 | inactive: -9.06% |
| Cc1cc(C)cc(OP(C)(=O)Nc2cccc(C(F)(F)F)c2)c1 (configuration not stated) | inactive: 15.3% |
| O=C1C(O)=C([N+](=O)[O-])C(=O)C(O)=C1[N+](=O)[O-] | inactive: -6.5% |
| COc1ccccc1OP(C)(=O)Nc1ccc(C)c(C)c1 (configuration not stated) | inactive: 4.04% |
| COc1ccc(OP(C)(=O)Nc2ccccc2Br)cc1 (configuration not stated) | inactive: -2.19% |
| CP(=O)(OCCOc1ccccc1)OCCOc1ccccc1 | inactive: 40.7% |
| CCCCCCCCCCCCCCCC1C[N+](C)(C)CCOP(C)(=O)O1 (configuration not stated) | inactive: 43.1% |
| CP(=O)(Nc1ccc(Cl)cc1Cl)Oc1ccccc1 (configuration not stated) | inactive: 35.1% |
| COc1ccccc1OP(C)(=O)Nc1ccc(Br)cc1 (configuration not stated) | inactive: 13.4% |
| COc1ccc(OP(C)(=O)Nc2ccccn2)cc1 (configuration not stated) | inactive: 12% |
| CN(C)CCOC(=O)C(O)(c1ccccc1)C1CCCC1 (configuration not stated) | inactive: 2.47% |
| O=[N+]([O-])c1cc([N+](=O)[O-])c(Nc2ccccn2)c([N+](=O)[O-])c1 | inactive: -3.81% |
| Cc1c(NP(C)(=O)Oc2ccc(C(C)C)cc2)c(=O)n(-c2ccccc2)n1C (configuration not stated) | inactive: 1.06% |
| COc1ccccc1OP(C)(=O)Nc1ccc(C)cc1C (configuration not stated) | inactive: 23.4% |
| CP(=O)(Nc1ccccn1)Oc1ccccc1 (configuration not stated) | inactive: 1.38% |
| CCc1ccc(OP(C)(=O)O)cc1 | inactive: -1.24% |
